The subject of one assay is UACC903 melanoma cells. In words: Cell cycle analysis (propidium iodide flow cytometry), UACC903. In kind it is cell-based, human. The note with it: riluzole 10 μM, 48 hours. For orientation: Flow cytometry measures light scatter and fluorescence of single cells or particles in a stream.
In a further assay the test system is A2058 melanoma cells. In words: Cell cycle analysis (propidium iodide flow cytometry), A2058. The format is cell-based, human. The following applies: riluzole 10 μM, 48 hours.
Assay [1] concerns C8161 human melanoma xenografts. In words: C8161 xenografts in immunodeficient nude mice. In kind it is in vivo. The following applies: riluzole 10 mg/kg. On the procedure:
(§1) The Institutional Review Board approved all animal studies for the Animal Care and Facilities Committee of Rutgers University. Nude mice were purchased from Taconic (Hudson, N.Y.). Cells were injected into 2 dorsal sites of each mouse at 10^6 cells per site. Tumor size was measured twice a week with a Vernier caliper and calculated as described. Once tumor volumes reached 6-10 mm^3, mice were divided into no treatment and treatment groups. […] The experiments were terminated when the xenografts in the no treatment group reached the maximum permitted size.
C8161 human melanoma cells were inoculated into the dorsal flanks of immunodeficient nude mice. 10^6 cells were inoculated into each dorsal flank of 5-6 week-old mice. When the tumors reached tumor volumes of ˜10 mm^3, the mice were randomly divided in 5 groups with similar tumor volumes. The mice were then treated by oral gavage daily, except for […] treatment, which was administered three times a week. […] Tumor volumes were determined once a week with a vernier caliper and the experiment was terminated when tumor burden in the control animals reached maximum permitted levels.

The test system of a further assay is 1205Lu melanoma cells. In words: Cell cycle analysis (propidium iodide flow cytometry), 1205Lu. The format is cell-based, human. The note with it: riluzole 10 μM, 48 hours.
Assay [2] concerns 1205Lu human melanoma xenografts. In words: 1205Lu xenografts in immunodeficient nude mice. The format is in vivo. The note with it: riluzole 10 mg/kg, sorafenib 24 mg/kg, or riluzole 5 mg/kg + sorafenib 12 mg/kg daily oral gavage; FIG. 3C. Here is the method:
as §1

Assay [3] concerns UACC903 human melanoma xenografts. In words: UACC903 xenografts in immunodeficient nude mice. The format is in vivo. The following applies: riluzole 10 mg/kg, sorafenib 24 mg/kg, or riluzole 5 mg/kg + sorafenib 12 mg/kg daily oral gavage; FIG. 3B; p<0.01 single agents day 18, p<0.001 combination. On the procedure:
as §1
Briefly, UACC903 cells were injected into the dorsal flanks of nude mice. Tumors were allowed to grow to approximately 6-10 mm^3 and mice were divided into groups to obtain relatively constant tumor volumes between each group (12 mice per group).

`Nc1nc2ccc(OC(F)(F)F)cc2s1` [riluzole]: the “shift of the cell population to the subG1 phase” value in the assay with UACC903 melanoma cells, with A2058 melanoma cells and in the assay on 1205Lu melanoma cells was 10-to-20 fold throughout. For the same compound, in assay [1] (MK2206 30 mg/kg, or riluzole 5 mg/kg + MK2206 15 mg/kg, oral gavage, FIG. 6, combination p<0.005 vs NT or vehicle), the “tumor volume / xenograft growth” value is “suppress the growth of the melanoma xenografts”. Moreover, the tumor volume entry is on record as “significant decrease in the tumor volumes” in assay [1] (sorafenib 24 mg/kg, or riluzole 5 mg/kg + sorafenib 12 mg/kg daily oral gavage, FIG. 3A, p<0.001 for riluzole and combination vs NT or Veh); “statistically relevant responses” in assay [3]. Besides, the “tumor volume response compared to UACC903 xenografts” value in assay [2] is recorded as “more sensitive”.

(Values after US20130116274A1, “THERAPEUTIC COMBINATIONS CONTAINING RILUZOLE” (RUTGERS, THE STATE UNIVERSITY OF NEW JERSEY, priority 2011, published 2013).)
